# Source: ChEMBL document CHEMBL5726854, “EZH2 inhibitors” (2019)
# Chains of the proteins cited; added tags and fusions are not shown.
# UniProt Q15910, whole entry: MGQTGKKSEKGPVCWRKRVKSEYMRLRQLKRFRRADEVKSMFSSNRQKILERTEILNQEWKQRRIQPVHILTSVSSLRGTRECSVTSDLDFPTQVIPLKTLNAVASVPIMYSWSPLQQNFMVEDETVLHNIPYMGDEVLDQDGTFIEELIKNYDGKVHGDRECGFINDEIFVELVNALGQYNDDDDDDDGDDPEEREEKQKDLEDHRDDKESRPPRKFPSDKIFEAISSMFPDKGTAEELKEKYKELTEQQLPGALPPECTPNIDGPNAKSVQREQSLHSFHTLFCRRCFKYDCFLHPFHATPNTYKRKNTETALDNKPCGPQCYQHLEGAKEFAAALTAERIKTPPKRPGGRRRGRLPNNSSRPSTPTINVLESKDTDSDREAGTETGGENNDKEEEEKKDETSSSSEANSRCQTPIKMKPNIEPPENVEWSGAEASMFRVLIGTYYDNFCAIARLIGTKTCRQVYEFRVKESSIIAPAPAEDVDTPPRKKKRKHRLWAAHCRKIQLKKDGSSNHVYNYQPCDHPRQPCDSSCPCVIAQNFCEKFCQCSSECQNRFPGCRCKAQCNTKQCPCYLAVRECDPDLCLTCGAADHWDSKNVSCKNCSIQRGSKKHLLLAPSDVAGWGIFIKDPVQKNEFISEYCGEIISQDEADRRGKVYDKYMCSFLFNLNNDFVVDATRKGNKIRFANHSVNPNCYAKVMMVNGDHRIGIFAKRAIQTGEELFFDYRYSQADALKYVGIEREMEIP
# Target: Histone-lysine N-methyltransferase EZH2 (Homo sapiens, UniProt Q15910)
# Assay: EZH2 enzymatic activity: Ten-point dose-response curves for a subset of compounds shown in Table 1 were determined using a Transcreener® EPIGEN Methyltransferase HTS assay using purified EZH2 enzyme (BellBrook Labs). In this assay, the S-adenosylhomocysteine (SAH) generated by the transfer of the methyl group from S-adenosyl methionine (SAM) to purified histone 3.3 protein by EZH2 is …
row,Structure (SMILES),IC50
1,COC(c1cc(Cl)c2c(c1Cl)C(=O)N(Cc1c(=O)[nH]c(C)c3c1ccn3C)CC2)C1COC1 (stereo not drawn),1 nM
2,Cc1[nH]c(=O)c(CN2CCc3c(Cl)cc(N4CC5(CCOCC5)C4)c(Cl)c3C2=O)c2c1NCC2,< 0.5 nM
3,COC(c1cc(Cl)c2c(c1Cl)C(=O)N(Cc1c(=O)[nH]c(C)c3ccoc13)CC2)C1CNC1 (stereo not drawn),12 nM
